Assay results taken from patent publication US20240058311A1, “USE OF SMO INHIBITOR IN PREPARATION OF DRUG FOR PREVENTING, DELAYING OR A[…] STENOSIS OF ART[…]” (JINAN UNIVERSITY, priority 2022, published 2024).

Test system: HUVECs
Conditions: 10 μM

CC1=C2C[C@H]3[C@@H](CC=C4C[C@@H](O)CC[C@@]43C)[C@@H]2CC[C@]12O[C@@H]1C[C@H](C)CN[C@H]1[C@H]2C [Cyc, Cyclopamine] was tested, and the “cell viability of HUVECs” value (HG culture conditions, vs HG alone (FIG. 6A)) was “significantly restore” and the “increasing the cell viability of HUVECs treated with high glucose” value (compared with Vis and Gla at the same dosage (FIG. 5B)) was “best effect”.
